Results from patent US11661421B2, “Indolizine compounds, preparation method and use thereof” (HAIHE BIOPHARMA CO., LTD., priority 2018, dated 2023).

Chains of the proteins cited; added tags and fusions are not shown.
UniProt Q15910, whole entry Y641F: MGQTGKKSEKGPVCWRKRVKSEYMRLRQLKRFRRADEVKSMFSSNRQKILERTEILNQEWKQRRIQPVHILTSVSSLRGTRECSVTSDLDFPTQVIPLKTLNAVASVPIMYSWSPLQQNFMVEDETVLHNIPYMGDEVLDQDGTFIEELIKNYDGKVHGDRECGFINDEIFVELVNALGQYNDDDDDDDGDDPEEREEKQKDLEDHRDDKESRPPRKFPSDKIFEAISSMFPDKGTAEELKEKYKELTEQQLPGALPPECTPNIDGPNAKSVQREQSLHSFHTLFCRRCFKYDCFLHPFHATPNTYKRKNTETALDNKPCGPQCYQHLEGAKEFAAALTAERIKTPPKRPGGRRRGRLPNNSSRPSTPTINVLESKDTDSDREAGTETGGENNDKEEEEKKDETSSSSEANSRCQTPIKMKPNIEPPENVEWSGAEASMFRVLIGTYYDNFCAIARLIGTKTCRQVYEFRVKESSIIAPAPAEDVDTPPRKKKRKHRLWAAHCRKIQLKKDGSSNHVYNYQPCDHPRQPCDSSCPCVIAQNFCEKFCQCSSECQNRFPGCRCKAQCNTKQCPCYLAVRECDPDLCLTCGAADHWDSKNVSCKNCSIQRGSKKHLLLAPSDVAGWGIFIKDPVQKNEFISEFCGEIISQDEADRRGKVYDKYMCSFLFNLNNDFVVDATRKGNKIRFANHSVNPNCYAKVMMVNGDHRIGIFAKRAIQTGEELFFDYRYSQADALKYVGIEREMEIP

Biological target: T1, PRC2 complex (EZH2 Y641F/EED/SUZ12/RbAp48/AEBP2) histone methyltransferase (Homo sapiens, UniProt Q15910, Y641F)
T1 construct: purchased Cisbio
Test: PRC2 complex (EZH2 Y641F) activity assay, HTRF
Assay type: biochemical
Conditions: H3(1-50) K27me1 substrate, SAM, 4 h at room temperature, read-out: IC50 (EZH2_Y641F)
Source text: 1. PRC2 Complex (Ezh2y641f) Activity Assay of the Compounds:
Test Method: Homogeneous Time-Resolved Fluorescence (HTRF)
Materials: PRC2 complex (EZH2 Y641F/EED/SUZ12/RbAp48/AEBP2) histone methyltransferase used in the test was purchased from Cisbio; substrate H3(1-50) K27me1 was a product of GL Biochem; methyl donor S-(5′-Adenosyl)-L-methionine chloride dihydrochloride (SAM) was purchased from Sigma-aldrich; Eu-labeled H3K27me3, Streptavidin-XL665 and the buffer used in the test were purchased from Cisbio.
Experiment method: PRC2 complex (EZH2 Y641F/EED/SUZ12/RbAp48/AEBP2), H3(1-50)me1 substrate, methyl donor SAM and the test compound were added to each well to reach a total of 10 μL reaction system and reacted in dark at room temperature for 4h. 5 μL of Eu-labeled H3K27 Me3 antibody and 5 μL of Streptavidin-XL665 were added to each well, mixed uniformly, and incubated at room temperature for 1 h. The fluorescence values at 620 nm and 665 nm were measured with a multi-label microplate analysis system (PerkinElmer Envision), and the HTRF signal ratio (665 nm/620 nm) was calculated for each well. The IC50 values of the compounds were calculated using SoftMax Pro 5.4.1 software.

C=C(c1c(C)c(C(=O)NCc2c(OC)cc(C)[nH]c2=O)cc2c(-c3ccnc(N(C)C)c3)ccn12)N1CCOCC1 [compound 2, 1-(2-(dimethylamino)pyridin-4-yl)-N-((4-methoxy-6-methyl-2-oxo-1,2-dihydropyridin-3-yl)methyl)-6-methyl-5-(1-morpholinylvinyl)indolizine-7-formamide]
IC50: 1.39 nM
